Consider three compounds from patent publication US6797710B2, “Heterocyclic derivatives and their use as antithrombotic agents” (Akzo Nobel N.V., priority 1997, dated 2004).

Structures can show the parent of a compound that is named as a salt.

One assay has as its target Bovine Factor Xa (Bos taurus, UniProt P00743). Put plainly: Anti-factor Xa assay (hydrolysis of chromogenic substrate S-2222). Format: biochemical. From the text:
Activated Factor X (Xa) is a factor in the coagulation cascade. […] This assay for anti-Xa activity in a buffer system was used to assess the IC50-value of the test compound.
In general the followed procedure and test conditions were analogous to those of the anti-thrombin assay as described above. Differences are indicated below.

The target in another assay is Human thrombin (Homo sapiens, UniProt P00734). Put plainly: Anti-thrombin assay (hydrolysis of chromogenic substrate S-2238). Format: biochemical. The following applies: pH 7.4; read-out: Antithrombin activity: IC50. The method, then:
Thrombin (Factor IIa) is a factor in the coagulation cascade.
The anti-thrombin activity of compounds of the present invention was assessed by measuring spectrophotometrically the rate of hydrolysis of the chromogenic substrate s-2238 exterted by thrombin. This assay for anti-thrombin activity in a buffer system was used to assess the IC50-value of a test compound.
Preparation of test and reference compound solutions
The test and reference compounds are dissolved in Milli-Q water to give stock concentrations of 10^−2 mol·l^−1. Each concentration is stepwise diluted with the vehicle to give concentrations of 10^−3, 10^−4 and 10^−5 mol·l^−1. […]
At room temperature 0.075 ml and 0.025 ml test compound or reference compound solutions or vehicle are alternately pipetted into the wells of a microtiter plate and these solutions are diluted with 0.115 ml and 0.0165 ml TNP buffer, respectively. […] Starting after 1 min of incubation, the absorbance of each sample at 405 nm is measured every 2,min. for a period of 90 min. using a kinetic microtiter plate reader (Twinreader plus, Flow Laboratories).
All data are collected in an IBM personal computer using LOTUS-MEASURE. For each compound concentration (expressed in mol·l^−1 reaction mixture) and for the blank the absorbance is plotted versus the reaction time in min. […]

`COc1ccc2ccc(S(=O)(=O)NC(Cc3cc4c(N)nccc4s3)C(=O)N3CCN(C)CC3)cc2c1` (stereo not drawn) [Example 24, 1-[3-(4-aminothieno[3,2c]pyridin-2-yl)-2-[[(7-methoxy-2-naphthalenyl)sulfonyl]amino]-1-oxopropyl]-4-methylpiperazine dihydrochloride] showed an IC50 against Bovine Factor Xa of 14 µM.

Compound `COc1ccc2ccc(S(=O)(=O)NC(Cc3cc4c(N)nccc4s3)C(=O)N3CCN(S(C)(=O)=O)CC3)cc2c1` (stereo not drawn) [Example 14, 1-[3-(4-aminothieno[3,2c]pyridin-2-yl)-2-[[(7-methoxy-2-naphthalenyl)sulfonyl]amino]-1-oxopropyl]-4-(methylsulfonyl)piperazine hydrochloride] showed an IC50 on Bovine Factor Xa of 41 µM.

In the case of `COc1cc(C)c(S(=O)(=O)N[C@@H](CC(=O)OC(C)(C)C)C(=O)NC(Cc2ccc3c(N)nccc3c2)C(=O)N2CCCCC2)c(C)c1C` (mixture of isomers) [Example 8, (3S)-4-[[1-[(1-amino-6-isoquinolinyl)methyl]-2-oxo-2-(1-piperidinyl)ethyl]amino]-3-[[(4-methoxy-2,3,6-trimethylphenyl)sulfonyl]amino]4-oxo-butanoic acid 1,1-dimethylethylester hydrochloride], on Human thrombin, the IC50 came out at 0.082 µM.
